# Measured values reported in ChEMBL document CHEMBL1134679, “Exploiting subsite S1 of trypsin-like serine proteases for selectivity: potent and selective inhibitors of urokinase-type plasminogen activator” (J Med Chem, 2001).
# Target: Urokinase-type plasminogen activator (Homo sapiens, UniProt P00749)
# Assay: The compound was tested for inhibition of human urokinase type plasminogen activator (microPa)
row,SMILES,Ki
1,N=C(N)c1cc2cc(-c3cccc(-c4ccccc4)c3O)[nH]c2cc1O,2000 nM
2,N=C(N)c1cc2cc(-c3cccc(-c4ccccc4)c3O)[nH]c2cc1F,20 nM
